# Experimental data reported in ChEMBL document CHEMBL5029148, “Discovery of Arylsulfonamides as Dual Orexin Receptor Agonists” (J Med Chem, 2021).
# Chains of the proteins cited; added tags and fusions are not shown.
# UniProt O43613, whole entry: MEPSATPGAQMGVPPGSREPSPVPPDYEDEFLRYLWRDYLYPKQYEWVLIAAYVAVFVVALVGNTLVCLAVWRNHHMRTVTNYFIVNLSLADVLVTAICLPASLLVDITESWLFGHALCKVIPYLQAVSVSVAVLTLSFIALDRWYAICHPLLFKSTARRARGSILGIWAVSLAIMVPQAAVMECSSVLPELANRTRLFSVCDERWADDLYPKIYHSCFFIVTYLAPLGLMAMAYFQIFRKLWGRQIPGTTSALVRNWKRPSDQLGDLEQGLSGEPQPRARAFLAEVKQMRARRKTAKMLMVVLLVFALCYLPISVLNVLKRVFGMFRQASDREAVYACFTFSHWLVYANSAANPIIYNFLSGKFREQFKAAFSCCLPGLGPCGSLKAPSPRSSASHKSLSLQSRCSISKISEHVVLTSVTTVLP
# Molecular target: Orexin/Hypocretin receptor type 1 (Homo sapiens, UniProt O43613)
# Test: Agonist activity at human OX1R stably expressed in CHO RD-HGA16 cells assessed as fluorescence changes measured after 30 mins by calcium mobilization assay
# Assay type: functional, cell-based
row,EC50 [µM],Compound
1,> 10,COc1ccc(CCC(=O)N(C)C)cc1S(=O)(=O)Nc1cccc(NCCNC(=O)c2cccc(C)c2)c1
2,0.326,COc1ccc(-c2cccc(C(=O)N(C)C)c2)cc1S(=O)(=O)Nc1cccc(NCCNC(=O)c2cccc(C)c2)c1
3,> 10,COc1ccc(/C=C/C(=O)N(C)C)cc1S(=O)(=O)Nc1cccc(NCCNC(=O)c2cccc(C)c2)c1
